Tested on: T-REx-293 cells, empty vector (vector control)
Assay: Intracellular Ca2+ measurement (fura-2), T-REx-293 cells stably transfected with empty vector
Settings: time course 0-125 s, time (s) in the cell to the left, Figure 3e
Procedure: T-REx-293 cell line was transfected with pcDNA4/TO-mPIEZO1 constructs using Lipofectamine 2000 (Invitrogen) as above and treated with 200 μg.mL^−1 zeocin (InvivoGen) to select for stably transfected cells. At least two strongly expressing clonal cell lines were established and tested for each variant. All cell lines were maintained in Dulbecco’s Modified Eagle’s medium (Invitrogen) supplemented with 10% heat-inactivated fetal calf serum (Sigma-Aldrich), penicillin (50 units.mL^−1) and streptomycin (0.5 mg.mL^−1) (Sigma-Aldrich) and grown at 37°C in a humidified 5% CO2 incubator.
For intracellular Ca^2+ assays, cells were plated at 80–90% confluence in 96-well plates 24 h prior to recordings (6–8 × 10^4 cells per well). To measure intracellular Ca^2+, cells were incubated for 1 h at 37°C in standard bath solution (SBS) of composition 135 mM NaCl, 5 mM KCl, 1.2 mM MgCl2, 1.5 mM CaCl2, 8 mM glucose and 10 mM HEPES (pH titrated to 7.4 using NaOH) containing 2 μM fura-2-acetoxymethyl ester (fura-2-AM, Molecular Probes) with 0.01% weight/volume pluronic acid. Cells were washed with SBS and incubated at room temperature for 20 min prior to recordings. Equal volumes of 2x concentrated compounds were injected to test for acute channel activation. Pre-incubation with compounds occurred during the 20 min prior to recordings. To expose cell membranes to hypo-osmolality, an equal volume of hypotonic SBS (containing only 35 mM NaCl) was injected onto the cells. Measurements were made on a fluorescence plate reader (Flexstation III, Molecular Devices) at room temperature (21 ± 2°C). Fura-2 was excited at 340 nm and 380 nm and emitted light collected at 510 nm, with measurements shown as the change in fluorescence (F) ratio (ΔF340/380).
KC41 (Dooku1) was prepared as described.[28] All purchased chemicals and solvents were used without further purification unless otherwise stated. All compounds were at least 95% pure by 1H NMR. 1H Nuclear Magnetic Resonance spectra were recorded at 500 MHz using a Bruker DRX 500 instrument or at 400 MHz using a Bruker DPX 400. 1H spectra are referenced based on the residual proton in the solvent (e.g., the CHCl3, 0.01% in 99.99% CDCl3). Coupling constants (J) are reported to the nearest 0.1 Hz. 13C NMR spectra were recorded at 125 MHz on 500 MHz spectrometers or at 100 MHz on 400 MHz spectrometers. LC-MS was performed on a Bruker Daltronics running a gradient of increasing acetonitrile (5–95%) in H2O both containing 0.1% formic acid at 1 mL.min^−1, on a short path C18 reverse phase column, detecting compounds with both a diode array detector and a Bruker mass spectrum analyser. HRMS was performed on a Bruker Daltonics micrOTOF using positive electrospray ionisation (ES+). Automated column chromatograph was carried out using a Biotage Isolera Four, using either Sfär Silica D or KP-Silica cartridges. HPLC was performed on an Agilent 1290 Infinity Series equipped with a UV detector and Hyperprep C18 reverse phase column. Key to NMR abbreviations: s (singlet), br s (broad singlet) d (doublet), dd (doublet of doublets), ddd (doublet of doublets of doublets), t (triplet), dt (doublet of triples), q (quartet), m (multiplet), ap. t (apparent triplet). For experiments, Yoda1 and its analogues were prepared as 10 mM stock solutions in 100% dimethyl sulfoxide (DMSO) before serial dilution in DMSO and final dilution in aqueous solution. Cells were exposed to 0.1% DMSO for all concentrations of the compounds from 0 to 10 μM.

Structure (SMILES): Clc1cccc(Cl)c1CSc1nnc(-c2cnccn2)s1 [Yoda1]
- fluorescence (Yoda1 0.01 µM, time 60 s): 0.02437
- fluorescence (Yoda1 0.01 µM, time 110 s): 0.01728
- fluorescence (Yoda1 0.03 µM, time 5 s): 0.00394
- fluorescence (Yoda1 0.03 µM, time 55 s): 0.04884
- fluorescence (Yoda1 0.03 µM, time 110 s): 0.02692
- fluorescence (Yoda1 0.1 µM, time 0 s): -0.00125
- fluorescence (Yoda1 0.1 µM, time 55 s): 0.03759
- fluorescence (Yoda1 0.1 µM, time 110 s): 0.02302
- fluorescence (Yoda1 0.3 µM, time 0 s): -0.00175
- fluorescence (Yoda1 0.3 µM, time 5 s): 0.01377
- fluorescence (Yoda1 0.3 µM, time 10 s): -0.00153
- fluorescence (Yoda1 0.3 µM, time 15 s): -0.01273
- fluorescence (Yoda1 0.3 µM, time 20 s): -0.00341
- fluorescence (Yoda1 0.3 µM, time 25 s): 0.00565
- fluorescence (Yoda1 0.3 µM, time 30 s): -0.2499
- fluorescence (Yoda1 0.3 µM, time 35 s): -0.1069
- fluorescence (Yoda1 0.3 µM, time 40 s): 0.04219
- fluorescence (Yoda1 0.3 µM, time 45 s): 0.02992
- fluorescence (Yoda1 0.3 µM, time 50 s): 0.04239
- fluorescence (Yoda1 0.3 µM, time 55 s): 0.02369
- fluorescence (Yoda1 0.3 µM, time 60 s): 0.02877
- fluorescence (Yoda1 0.3 µM, time 65 s): 0.01603
- fluorescence (Yoda1 0.3 µM, time 70 s): 0.04176
- fluorescence (Yoda1 0.3 µM, time 75 s): 0.00642
- fluorescence (Yoda1 0.3 µM, time 80 s): 0.03982
- fluorescence (Yoda1 0.3 µM, time 85 s): 0.03156
- fluorescence (Yoda1 0.3 µM, time 90 s): 0.03001
- fluorescence (Yoda1 0.3 µM, time 95 s): 0.02269
- fluorescence (Yoda1 0.3 µM, time 100 s): 0.00809
- fluorescence (Yoda1 1 µM, time 0 s): -0.00535
- fluorescence (Yoda1 1 µM, time 55 s): 0.04091
- fluorescence (Yoda1 1 µM, time 110 s): 0.01839
- fluorescence (Yoda1 3 µM, time 0 s): 0.01974
- fluorescence (Yoda1 3 µM, time 5 s): 0.00863
- fluorescence (Yoda1 3 µM, time 10 s): -0.01253
- fluorescence (Yoda1 3 µM, time 15 s): -0.00652
- fluorescence (Yoda1 3 µM, time 20 s): 0.00489
- fluorescence (Yoda1 3 µM, time 25 s): -0.01421
- fluorescence (Yoda1 3 µM, time 30 s): -0.2206
- fluorescence (Yoda1 3 µM, time 35 s): -0.1161
- fluorescence (Yoda1 3 µM, time 40 s): 0.06482
- fluorescence (Yoda1 3 µM, time 50 s): 0.06525
- fluorescence (Yoda1 3 µM, time 55 s): 0.08549
- fluorescence (Yoda1 3 µM, time 105 s): 0.04529
- fluorescence (Yoda1 3 µM, time 110 s): 0.05218
- fluorescence (Yoda1 3 µM, time 115 s): 0.04746
- fluorescence (Yoda1 3 µM, time 120 s): 0.0477
- fluorescence (Yoda1 3 µM, time 125 s): 0.03491
- fluorescence (Yoda1 5 µM, time 0 s): -0.00759
- fluorescence (Yoda1 5 µM, time 10 s): 0.00484
- fluorescence (Yoda1 5 µM, time 15 s): -0.01453
- fluorescence (Yoda1 5 µM, time 20 s): 0.01196
- fluorescence (Yoda1 5 µM, time 25 s): -0.00265
- fluorescence (Yoda1 5 µM, time 30 s): -0.1828
- fluorescence (Yoda1 5 µM, time 35 s): -0.1045
- fluorescence (Yoda1 5 µM, time 40 s): 0.1222
- fluorescence (Yoda1 5 µM, time 45 s): 0.09547
- fluorescence (Yoda1 5 µM, time 50 s): 0.1062
- fluorescence (Yoda1 5 µM, time 55 s): 0.1244
- fluorescence (Yoda1 5 µM, time 60 s): 0.1058
- fluorescence (Yoda1 5 µM, time 65 s): 0.1061
- fluorescence (Yoda1 5 µM, time 70 s): 0.08919
- fluorescence (Yoda1 5 µM, time 80 s): 0.09353
- fluorescence (Yoda1 5 µM, time 85 s): 0.08273
- fluorescence (Yoda1 5 µM, time 90 s): 0.09999
- fluorescence (Yoda1 5 µM, time 95 s): 0.09519
- fluorescence (Yoda1 5 µM, time 100 s): 0.08723
- fluorescence (Yoda1 5 µM, time 105 s): 0.09223
- fluorescence (Yoda1 5 µM, time 110 s): 0.08686
- fluorescence (Yoda1 5 µM, time 115 s): 0.08757
- fluorescence (Yoda1 5 µM, time 120 s): 0.08911
- fluorescence (Yoda1 5 µM, time 125 s): 0.1049
- fluorescence (Yoda1 10 µM, time 50 s): 0.1449
- fluorescence (Yoda1 10 µM, time 100 s): 0.2049

Source: PMC12337661, “PIEZO1 mechanical insensitivity in generalized lymphatic dysplasia with the potential for pharmacological rescue” (iScience, 2025)
